Laboratory results taken from patent publication EP4840855A1, “SULFONAMIDE DERIVATIVE, PREPARATION METHOD THEREFOR AND USE THEREOF” (dated 2026).

Sequences of proteins named here, by UniProt entry; tags and fusion partners are left off.
UniProt P17812, whole entry: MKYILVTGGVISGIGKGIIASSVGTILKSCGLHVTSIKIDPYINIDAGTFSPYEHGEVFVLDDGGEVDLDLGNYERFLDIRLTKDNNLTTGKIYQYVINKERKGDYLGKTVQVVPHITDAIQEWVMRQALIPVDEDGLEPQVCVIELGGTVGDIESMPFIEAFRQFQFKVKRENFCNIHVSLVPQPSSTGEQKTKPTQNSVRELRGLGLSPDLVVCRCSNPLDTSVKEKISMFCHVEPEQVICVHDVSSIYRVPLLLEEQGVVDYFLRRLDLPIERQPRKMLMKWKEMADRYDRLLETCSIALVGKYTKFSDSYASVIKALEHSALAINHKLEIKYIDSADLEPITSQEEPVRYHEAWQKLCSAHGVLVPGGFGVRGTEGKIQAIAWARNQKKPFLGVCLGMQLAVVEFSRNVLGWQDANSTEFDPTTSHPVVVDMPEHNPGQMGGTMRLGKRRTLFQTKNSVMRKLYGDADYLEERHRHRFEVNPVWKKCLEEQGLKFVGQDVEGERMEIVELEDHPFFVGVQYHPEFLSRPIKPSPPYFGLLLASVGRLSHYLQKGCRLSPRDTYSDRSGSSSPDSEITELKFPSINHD

Columns and labels:
[1] = tested on: Jurkat (Clone E6-1) cells; experiment: Inhibition on Jurkat cell proliferation (CellTiter-Glo cell viability); settings: 72 hours culture
Description: The following method was used to determine the effect of the compounds of the present disclosure on Jurkat cell proliferation. Jurkat (Clone E6-1) cells were purchased from the Cell Resource Center of Shanghai Institutes for Biological Sciences, Chinese Academy of Sciences, and were cultured in RPMI 1640 medium containing 10% fetal bovine serum, 100 U penicillin, and 100 µg/mL streptomycin. Cell viability was measured using a CellTiter-Glo® Luminescent Cell Viability Assay kit (Promega, catalog number G7573).
The experiment was performed according to the kit's manual, briefly summarized as follows: test compounds were first dissolved in DMSO to prepare 10 mM stock solutions, which were then diluted with medium to prepare test samples. The final concentration range of the compounds was from 10000 nM to 1.52 nM. Cells in the logarithmic growth phase were seeded into a 96-well cell culture plate at a density of 1000 cells per well, and test compounds were added. The cells were cultured in a 37°C CO2 incubator for 72 hours. After culturing, 50 µL of CellTiter-Glo detection reagent was added to each well, the plate was shaken for 5 minutes, and allowed to stand for 10 minutes. The luminescence of each well was then measured using a microplate reader in Luminescence mode. The percentage inhibition at each concentration point was calculated by comparison with the control group (0.1% DMSO). Nonlinear regression analysis of compound concentration logarithm versus inhibition rate was performed using GraphPad Prism 9 software to obtain the IC50 values of the compounds for inhibiting cell proliferation, as shown in Table 1. Table 1 IC50 Data for Inhibition on Jurkat Cell Proliferation by the Compounds of the Present Disclosure

[2] = target: human cytidine triphosphate synthase 1 (hCTPS1) (Homo sapiens, UniProt P17812); experiment: Inhibition on hCTPS1 enzyme activity (ADP-Glo Kinase Assay); settings: 40 nM hCTPS1, 120 µM ATP, 160 µM UTP, 60 µM GTP, 100 µM L-Glutamine, 120 minutes
Description: The following method was used to determine the degree of inhibition on human cytidine triphosphate synthase 1 (hCTPS1) enzyme activity by the compounds of the present disclosure in vitro. ADP-Glo™ Kinase Assay kit (catalog number V9102) from Promega was used in this method. The kit's manual may be referred for a detailed experimental procedure.
The experimental procedure was briefly described as follows: The reaction was performed in a buffer containing 50 mM 4-hydroxyethylpiperazineethanesulfonic acid (HEPES), 10 mM magnesium chloride, 5 mM potassium chloride, 0.01% Pluronic F127, and 4 mM dithiothreitol in a 384-well plate. First, 100 nL of gradient-diluted compound was transferred to the 384-well plate via a nanoliter acoustic liquid transfer system (manufacturer: Labcyte; catalog number: Echo 655), and 2.5 µL of buffer containing hCTPS1 was added, followed by incubation in a 25°C incubator for 10 minutes. Then 2.5 µL of buffer containing ATP and UTP was added, followed by incubation in a 25°C incubator for 10 minutes. Finally, 5 µL of buffer containing GTP and L-glutamine (L-Gln) was added to initiate the reaction. The final reaction system was: 40 nM hCTPS1, 120 µM ATP, 160 µM UTP, 60 µM GTP, 100 µM L-Glutamine, 1% DMSO, with a total assay volume of 10 µL. The reaction was performed for 120 minutes, then 10 µL of ADP-Glo Reagent was added, followed by incubation for 1 hour. Then 20 µL of Kinase Detection Reagent was added, and after 1 hour, the chemiluminescence value was recorded on a Microbeta microplate reader (manufacturer: PerkinElmer; catalog number: Envision). The percentage inhibition rates of the compounds at each concentration were calculated by comparing the chemiluminescence intensity ratio with a control group (0.1% DMSO). The IC50 value of the compounds were obtained by nonlinear regression analysis of compound concentration logarithm-inhibition rate using GraphPad Prism 5 software, as shown in Table 2. Table 2 IC50 data for inhibition on hCTPS1 enzyme activity by the compounds of the present disclosure

[3] = Pharmacokinetic testing in mice (plasma concentration by LC-MS/MS); settings: ICR mice, male, Oral (10 mg/kg), fasted overnight
Description: ICR mice were used as test animals. Plasma concentrations of the test compounds at different time points were measured by LC/MS/MS after intragastrical administration of the reference compound STP-B and the compounds of the present disclosure, and the pharmacokinetic characteristics of the compounds of the present disclosure in mice were studied.
ICR mice, male, 30.8 to 38.0 g, purchased from Vital River Laboratory Animal Technology Co., Ltd.
An appropriate amount of the test compound was weighed, and an appropriate amount of DMA (N,N-dimethylacetamide), 30% Solutol HS15 (30% polyethylene glycol-15 hydroxystearate), and saline were added sequentially, mixed by ultrasonication and vortexing to prepare a 1 mg/mL dosing formulation. The ratio of DMA:30% Solutol HS15:saline was 10:10:80 (v/v/v).
ICR mice in each test compound injection group (9 mice per group) were fasted overnight and then administered intragastrically (PO, compound dose was 10 mg/kg, dosing volume was 10 mL/kg), and fed 4 hours after dosing.
About 0.1 mL of blood was collected from the orbit before dosing and at 0.25 h, 0.5 h, 1 h, 2 h, 4 h, 8 h, 10 h, and 24 h after dosing, and whole blood samples were placed in anticoagulant tubes containing EDTA-K2. After blood sample collection, samples were placed on ice and centrifuged to separate plasma (centrifugation conditions: 1500 g, 10 minutes). The collected plasma was stored at -40 to -20°C before analysis.
The content of test compounds in mouse plasma after intragastrical administration was determined by LC-MS/MS.

[4] = tested on: BxPC-3 cells (human primary pancreatic cancer cells); experiment: Inhibition on BxPC-3 cell proliferation (CellTiter-Glo cell viability); settings: 120 hours culture
Description: The following method was used to determine the effect of the compounds of the present disclosure on the proliferation of BxPC-3 cells (human primary pancreatic cancer cells). BxPC-3 cells were purchased from the Cell Resource Center of Shanghai Institutes for Biological Sciences, Chinese Academy of Sciences, and were cultured in DMEM medium containing 10% fetal bovine serum, 100 U penicillin, and 100 µg/mL streptomycin. Cell viability was determined using CellTiter-Glo® Luminescent Cell Viability Assay kit (Promega, catalog number G7573).
The experimental method was performed according to the steps in the kit's manual, briefly described as follows: The test compound was first dissolved in DMSO to prepare a 10 mM stock solution, then diluted with medium to prepare test samples, with a final concentration range of the compound from 10000 nM to 1.52 nM. Cells in logarithmic growth phase were seeded into a 96-well cell culture plate at a density of 1000 cells per well, then the test compounds were added, and the cells were cultured in a 37°C CO2 incubator for 120 hours. After culture was completed, 50 µL of CellTiter-Glo detection reagent was added to each well, the plate was shaken for 5 minutes, then allowed to stand for 10 minutes, and then the luminescence value of each well of the sample was read on a microplate reader using Luminescence mode. The percentage inhibition rates of the compounds at each concentration point were calculated by comparing with the value of a control group (0.1% DMSO). Then nonlinear regression analysis was performed on compound concentration logarithm-inhibition rate in GraphPad Prism 9 software to obtain the IC50 values of the compounds for inhibiting cell proliferation, as shown in Table 4. Table 4 IC50 data for inhibition on BxPC-3 cell proliferation by the compounds of the present disclosure

CCOc1cncc(-c2ccc(NC(=O)C3(c4cc(NS(=O)(=O)C5CC5)ccn4)[C@@H]4CCC[C@@H]43)cc2)n1 (some centres unmarked)
IC50 [1]: 0.00337 µM | IC50 [2]: 0.0059 µM

O=C(Nc1ccc(-c2cnn3ccc(Cl)cc23)cn1)C1(c2nccc(NS(=O)(=O)C3CC3)n2)CC2CC2C1 (centres unmarked)
IC50 [1]: 0.0106 µM | AUC AUC0-1(ng·h/mL) [3]: 329711 ng·h/mL | Half-life T1/2 [3]: 5.32 h | Plasma concentration Cmax [3]: 36550 ng/mL

CCOc1cncc(-c2ccc(NC(=O)C3(c4ccnc(NS(=O)(=O)C5CC5)n4)Cc4ccccc4C3)nc2)n1
IC50 [1]: 0.0723 µM | IC50 [2]: 0.0253 µM

CCOc1cncc(-c2ccc(NC(=O)C3(c4ccnc(NS(=O)(=O)C5CC5)n4)CC4CCC(C3)O4)cc2)n1 (centres unmarked)
IC50 [1]: 0.0138 µM | AUC AUC0-1(ng·h/mL) [3]: 113217 ng·h/mL | Half-life T1/2 [3]: 2.35 h | Plasma concentration Cmax [3]: 38635 ng/mL

CCOc1cncc(-c2ccc(NC(=O)C3(c4cc(NS(=O)(=O)CC)ncn4)CC4CC4C3)cc2)n1 (centres unmarked)
IC50 [1]: 0.00848 µM | AUC AUC0-1(ng·h/mL) [3]: 124000 ng·h/mL | Half-life T1/2 [3]: 2.15 h | Plasma concentration Cmax [3]: 14700 ng/mL

CCOc1cncc(-c2ccc(NC(=O)C3(c4cc(NS(=O)(=O)C5CC5)ccn4)[C@@H]4COC[C@@H]43)cc2)n1 (some centres unmarked)
IC50 [1]: 0.0107 µM | IC50 [2]: 0.0201 µM

CCOc1cncc(-c2ccc(NC(=O)C3(c4cc(NS(=O)(=O)C5CC5)ccn4)[C@@H]4CN(C)C[C@@H]43)cc2)n1 (some centres unmarked)
IC50 [1]: 0.0158 µM | IC50 [2]: 0.0145 µM

CCOc1cncc(-c2ccc(NC(=O)C3(c4cncc(NS(=O)(=O)C5CC5)n4)CC4CC4C3)nc2)n1 (centres unmarked)
IC50 [1]: 0.0165 µM | AUC AUC0-1(ng·h/mL) [3]: 111000 ng·h/mL | Half-life T1/2 [3]: 2.8 h | Plasma concentration Cmax [3]: 28500 ng/mL

CCOc1cncc(-c2ccc(NC(=O)C3(c4nccc(NS(=O)(=O)C5CC5)n4)CC4CC4C3)c(F)c2)n1 (centres unmarked)
IC50 [1]: 0.00919 µM | IC50 [4]: 0.0241 µM | AUC AUC0-1(ng·h/mL) [3]: 369691 ng·h/mL | Half-life T1/2 [3]: 6.3 h | Plasma concentration Cmax [3]: 38390 ng/mL

CCOc1cncc(-c2ccc(NC(=O)C3(c4cc(NS(=O)(=O)C5CC5)ncn4)Cc4ccccc4C3)cc2)n1
IC50 [1]: 0.0277 µM | AUC AUC0-1(ng·h/mL) [3]: 142000 ng·h/mL | Half-life T1/2 [3]: 2.86 h | Plasma concentration Cmax [3]: 36900 ng/mL

CCOc1cncc(-c2ccc(NC(=O)C3(c4cc(NS(=O)(=O)C5CC5)ncn4)CC4CC4C3)cc2)n1 (centres unmarked)
IC50 [1]: 0.00359 µM | IC50 [2]: 0.011 µM | AUC AUC0-1(ng·h/mL) [3]: 72611 ng·h/mL | Half-life T1/2 [3]: 4.52 h | Plasma concentration Cmax [3]: 13438 ng/mL

CCOc1cncc(-c2ccc(NC(=O)C3(c4ccnc(NS(=O)(=O)C5CC5)n4)CC4CC4C3)cc2)n1 (centres unmarked)
IC50 [1]: 0.0697 µM | IC50 [2]: 0.018 µM

CCOc1cncc(-c2cnc(C(=O)NC3(c4cc(NS(=O)(=O)CC)ncn4)CC4CC4C3)s2)n1 (centres unmarked)
IC50 [1]: 0.00742 µM | AUC AUC0-1(ng·h/mL) [3]: 92300 ng·h/mL | Half-life T1/2 [3]: 2.69 h | Plasma concentration Cmax [3]: 25900 ng/mL

CCOc1cncc(-c2ccc(NC(=O)C3(c4nccc(NS(=O)(=O)C5CC5)n4)C[C@H]4CC[C@@H](C3)O4)c(F)c2)n1 (some centres unmarked)
IC50 [1]: 0.0152 µM | AUC AUC0-1(ng·h/mL) [3]: 180249 ng·h/mL | Half-life T1/2 [3]: 2.41 h | Plasma concentration Cmax [3]: 45501 ng/mL

CCOc1cncc(-c2ccc(NC(=O)C3(c4ccnc(NS(=O)(=O)C5CC5)n4)CCc4c(cnn4C)C3)cc2)n1 (centres unmarked)
IC50 [1]: 0.0298 µM | IC50 [2]: 0.0163 µM

CCOc1cncc(-c2ccc(NC(=O)C3(c4cc(NS(=O)(=O)C5CC5)ncn4)CC4CCC(C3)O4)c(F)c2)n1 (centres unmarked)
IC50 [1]: 0.00559 µM | AUC AUC0-1(ng·h/mL) [3]: 66475 ng·h/mL | Half-life T1/2 [3]: 2.06 h | Plasma concentration Cmax [3]: 15294 ng/mL

CCOc1cncc(-c2ccc(NC(=O)C3(c4ccnc(NS(=O)(=O)C5CC5)n4)CCOCC3)nc2)n1
IC50 [2]: 0.0372 µM | IC50 [4]: 0.0413 µM | AUC AUC0-1(ng·h/mL) [3]: 37484 ng·h/mL | Half-life T1/2 [3]: 3.05 h | Plasma concentration Cmax [3]: 34375 ng/mL

O=C(Nc1ccc(-c2cnn3ccc(Cl)cc23)cc1)C1(c2cc(NS(=O)(=O)C3CC3)ncn2)CC2CC2C1 (centres unmarked)
IC50 [1]: 0.00835 µM | AUC AUC0-1(ng·h/mL) [3]: 151721 ng·h/mL | Half-life T1/2 [3]: 5.73 h | Plasma concentration Cmax [3]: 21738 ng/mL

CCOc1cncc(-c2ccc(C(=O)NC3(c4cc(NS(=O)(=O)C5CC5)ncn4)CC4CC4C3)s2)n1 (centres unmarked)
IC50 [1]: 0.00237 µM | AUC AUC0-1(ng·h/mL) [3]: 59792 ng·h/mL | Half-life T1/2 [3]: 2.24 h | Plasma concentration Cmax [3]: 45398 ng/mL

CCOc1cncc(-c2cnc(C(=O)NC3(c4cc(NS(C)(=O)=O)ncn4)CC4CC4C3)s2)n1 (centres unmarked)
IC50 [1]: 0.0106 µM | AUC AUC0-1(ng·h/mL) [3]: 64400 ng·h/mL | Half-life T1/2 [3]: 2.6 h | Plasma concentration Cmax [3]: 15600 ng/mL
